Cneo AK release: causes C. neoformans cell lysis. lysis activity, % at 15 µM. adenylate kinase release luminescence, 4 h; normalised: neutral wells 0, clomiphene wells 100. hit rate 0.2% among 360,000;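 active = mean lysis activity across replicates of at least 80%, whatever share of replicates individually reach that level; inactive = mean lysis activity below 80%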
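Assay system: C. neoformans cells. Amount: yeast cell density of 5 × 10^6 cells/mL. Technique: AK luminescence. Buffer or medium: YPD. Times: static 4 h at 37 °C with compound, 1 h detection. Dosing: single-point compound dose. Read-out: lysis from increased AK signal.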
C2C12 statin: protects C2C12 myotubes from simvastatin toxicity; ATP luminescence, 48 h; scaled: DMSO 0, geranylgeraniol control 100; rescue of ATP level, % at 7.49 µM; hit rate 0.78% among 330,000; AID 602340;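 active = mean ATP rescue above about 67%, or every replicate alone reaching that limit, limit read from the data, passing the limit was not always enough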;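 note: myotubes were challenged with 10 µM simvastatin during compound exposure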
miR122 inh: inhibitors of miR-122 in Huh7 cells; Huh7 miR-122 Renilla luciferase sensor, 48 h; neutral wells = 0, positive control = 100; activation (reporter increase), % at 12.5 µM; hit rate 0.3% among 340,000; AID 602342;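 active = mean replicate activation score at least 90 and every replicate individually at or above 90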;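 note: higher luciferase means less miR-122 activity so hits act as miR-122 inhibitors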
UUG fidelity: modulators of start codon recognition fidelity in yeast; AID 602363; hit rate 0.13% among 350,000; activity score, % at 18.7 µM; S. cerevisiae UUG-firefly luciferase reporter, luminescence/redox ratio;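 active = replicate mean at a twofold rise or more, about +100% in these data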;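 note: firefly luciferase made from a UUG start codon reports start codon fidelity; reporter light over untreated wells divided by growth signal over untreated wells; some hits fall short of that in this replicate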
N-glyco inh: blocks N-linked glycosylation in D54 reporter cells; reporter increase, % at 12.5 µM; AID 588692; D54 ERlucT glycosylation luciferase reporter, 24 h; percent of 100 nM tunicamycin response; hit rate 0.23% among 360,000;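 active = mean luciferase reporter signal, scaled so untreated is 0 and the glycosylation-blocking control 100, at or above a set limit in every replicate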;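 note: luciferase carries N-glycosylation sites so blocking glycosylation raises the light; 0% = median of neutral control wells and 100% = median of 100 nM tunicamycin wells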
* marks the source's active call; other numbers are inactive results; · = not tested or not shown; [ ] = another dose, or the depositor's remark. The list is not random: actives were taken first. Their share in the collection is about 1.2%.

SMILES	Cneo AK release	C2C12 statin	miR122 inh	UUG fidelity	N-glyco inh
Cc1ccc(S(=O)(=O)Nc2cccc3c2O[C@H](CN(C)Cc2ccc(C(=O)Nc4ccccc4N)cc2)[C@H](C)CN([C@H](C)CO)C3=O)cc1	57	23	189*[16.7 µM]	7	·
C[C@H]1CN([C@@H](C)CO)C(=O)c2cccc(NS(=O)(=O)c3ccc(Cl)cc3)c2O[C@H]1CN(C)Cc1ccc(C(=O)Nc2ccccc2N)cc1	-3	·	10[16.7 µM]	12	·
COc1ccc(NC(=O)N(C)C[C@H]2OCCCC[C@@H](C)Oc3ccc(NC(=O)Nc4ccc(C(F)(F)F)cc4)cc3C(=O)N([C@@H](C)CO)C[C@@H]2C)cc1	4	-15	6[16.7 µM]	-8	·
CNC(=O)C[C@H]1CC[C@H]2[C@H](COc3ccc(NC(=O)Nc4ccc(F)c(F)c4)cc3C(=O)N2C)O1	59	7	25[16.7 µM]	28	·
CC(=O)Nc1cccc(Nc2cc(C)nn2C)c1	1	-15	-1	-8	0
CCN(CC)S(=O)(=O)c1ccc(NC(=O)c2ccc(N(C)S(C)(=O)=O)cc2)cc1	0	104*	-6	-3	-3
Cc1c(NC(=O)C(C#N)=C2CCCCC2)c(=O)n(-c2ccccc2)n1C	0	106*	4	-9	2
Cc1c(NC(=O)/C(C#N)=C/c2ccccc2)c(=O)n(-c2ccccc2)n1C	·	·	-8	·	2
O=C(N/N=C/c1ccccc1)C(O)c1ccccc1 (stereo not drawn)	-2	5	11	-16	1
O=C(N/N=C/c1cccs1)C(O)c1ccccc1 (stereo not drawn)	-2	-2	197*	6	-1
CCC(C)[C@H](NC(=O)Nc1ccc(C(C)=O)cc1)C(=O)OC (stereo partly drawn)	-1	93*	1	-8	-2
CCC(C)[C@H](NC(=O)Nc1ccc(S(N)(=O)=O)cc1)C(=O)OC (stereo partly drawn)	·	·	·	·	0
O=C(c1cc(COc2c(F)cccc2F)on1)N(Cc1ccccc1)CC1CC1	-2	4	-4	12	-3
CCN1CCN(c2ccc(NC(=O)Cc3ccccc3)cc2)CC1	-2	105*	31	-5	0
O=C(Nc1ccc(N2CCN(C(=O)c3ccccc3)CC2)c(Cl)c1)c1ccco1	-1	122*	67	-2	-8
O=C(Cc1ccccc1)Nc1ccc(N2CCCC2)cc1	0	-19	-10	-15	0
O=C(NCc1nnc(SCC(=O)N2CCN(c3ccccc3)CC2)o1)c1ccco1	-1	93*	2	-10	0
Cc1ccccc1C(=O)NCc1nnc(SCC(=O)N2CCN(c3ccccc3)CC2)n1C	4	101*	-3	-8	4
CC(=O)N1CCN(c2ccc(NC(=O)c3ccco3)cc2Cl)CC1	1	-8	-4	-8	2
C[C@@H]1CN([C@@H](C)CO)C(=O)c2cc(NS(=O)(=O)c3cn(C)cn3)ccc2O[C@H]1CN(C)S(=O)(=O)c1ccc(Cl)cc1	0	-4	6[16.7 µM]	-4	·
CCC(=O)N1CCN(c2ccc(NC(=O)c3ccco3)cc2)CC1	0	95*	-2	-9	-4
O=C(Nc1ccc(Br)c(Cl)c1)c1ccco1	-7	12	144*	-15	-3
O=C(Nc1ccc(Cl)c([N+](=O)[O-])c1)c1ccco1	112*	-2	-2	-11	0
CC(=O)N1CCN(c2ccc(NC(=O)c3ccco3)cc2)CC1	·	5	-3	·	-2
O=C(Nc1ccc(Cl)cc1C(=O)Nc1ccncc1)c1ccco1	-1	91*	-2	-20	1
C[C@@H]1CN([C@H](C)CO)C(=O)c2cc(NC(=O)Nc3ccc(F)cc3)ccc2O[C@@H]1CN(C)Cc1ccc2c(c1)OCO2	2	-3	5[16.7 µM]	14	·
CCn1c(SCC(=O)Nc2ccc(N3CCOCC3)cc2)nnc1C1CC1	-4	1	·	-13	1
O=C(C[C@@H]1CC[C@@H]2[C@H](COC[C@@H](O)CN2S(=O)(=O)c2cccc(Cl)c2)O1)NCCCN1CCOCC1	-3	4	-6[16.7 µM]	·	·
C[C@@H]1CN([C@H](C)CO)C(=O)c2cc(NC(=O)CCN3CCOCC3)ccc2O[C@@H]1CN(C)Cc1ccncc1	-3	26	5[16.7 µM]	·	·
CCCN1[C@@H]2Cn3c(ccc(-c4ccc(F)cc4)c3=O)[C@H]1[C@@H](C(=O)NCCOC)[C@@H]2CO	0	17	·	·	·

An excerpt taken from the entries so far, as a working copy:
SMILES	Cneo AK release	C2C12 statin	miR122 inh	UUG fidelity	N-glyco inh
O=C(Nc1ccc(Cl)cc1C(=O)Nc1ccncc1)c1ccco1	-1	91*	-2	-20	1
C[C@@H]1CN([C@H](C)CO)C(=O)c2cc(NC(=O)Nc3ccc(F)cc3)ccc2O[C@@H]1CN(C)Cc1ccc2c(c1)OCO2	2	-3	5[16.7 µM]	14	·
CCn1c(SCC(=O)Nc2ccc(N3CCOCC3)cc2)nnc1C1CC1	-4	1	·	-13	1
O=C(C[C@@H]1CC[C@@H]2[C@H](COC[C@@H](O)CN2S(=O)(=O)c2cccc(Cl)c2)O1)NCCCN1CCOCC1	-3	4	-6[16.7 µM]	·	·

Compound activity from PubChem.
